## Binding of CDR-mutated scFvs to a peptide of the spike HR2 region

Antigen: PDVDLGDISGINAS, a 14-residue peptide of the SARS-CoV-2 spike HR2 region.

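The parent was found by panning a naive human phage display library on the peptide. Variants in AAYL52 differ from the parent at up to three CDR positions; double and triple changes were sampled at random. The assay is AlphaSeq: two haploid yeast populations carry antibody and antigen on their surface. Mating (16 h, 30 °C) was followed by selection of diploids and sequencing of their barcodes. Read counts were normalised to the haploid input and turned into Kd by a linear fit to BCL2-family pairs of known affinity, for each replicate. Mating was done three times.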

Parent: Ab-95, a human scFv built as VH, three GGGGS repeats, VL. Only the CDRs of the light chain vary.
VH: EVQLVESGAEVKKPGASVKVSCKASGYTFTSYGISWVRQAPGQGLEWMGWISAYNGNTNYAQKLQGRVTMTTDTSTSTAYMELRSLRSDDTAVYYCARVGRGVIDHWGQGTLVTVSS
VL: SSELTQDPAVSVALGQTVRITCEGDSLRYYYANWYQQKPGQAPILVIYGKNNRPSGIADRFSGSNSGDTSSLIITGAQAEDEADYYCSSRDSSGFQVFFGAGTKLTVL

Substitutions are numbered in sequence along the VL above, starting at 1 (not Kabat).
Values are log10 of the apparent Kd in nM; lower means stronger binding.
A mean of the replicates is given; it leaves out those without a signal.
An entry "nd" has no value in the source: the pair was not observed among the diploids in that replicate. This suggests poor binding but is not conclusive.
Empty control strains, which show no peptide, gave a signal in 28% of pairings with library AAYL52; the median was 3.91 and 95% of these signals were weaker than 2.90. No background was subtracted. Also given: how often the same scFv was detected with the empty control strains, with their mean in brackets.
In this assay the parent's reference entry averaged 2.31; its copy inside this library read 2.25.

| # | changes | log10 Kd (nM) by replicate | mean log10 Kd (nM) | control signals |
|---|---|---|---|---|
| 1 | D25A S93H G94T | 4.77 / 3.70 / nd | 4.23 | 2/9 (3.85) |
| 2 | Y30V N52G S55R | 3.02 / 3.05 / 3.00 | 3.02 | 4/9 (3.76) |
| 3 | Y29P Y31V F95T | 3.13 / 3.12 / 3.58 | 3.28 | 4/9 (3.73) |
| 4 | Y29R R53I G94A | nd / nd / 3.95 | 3.95 | 1/9 (3.37) |
| 5 | E23R Y30R K50C | 1.85 / 1.59 / 1.15 | 1.53 | 4/9 (3.76) |
| 6 | S26D D91C S93K | 3.25 / 2.50 / 2.79 | 2.85 | 3/9 (4.23) |
| 7 | D25Q Y30M D91P | 4.18 / 5.89 / nd | 5.04 | 5/9 (4.11) |
| 8 | Y31C A32N N33P | 5.45 / 4.24 / 4.13 | 4.61 | 4/9 (3.46) |
| 9 | S26K Y29R G49T | 3.53 / nd / nd | 3.53 | 0/9 |
| 10 | G49H K50R S89Q | nd / nd / nd | nd | 2/9 (4.36) |
| 11 | E23R Q96A F98C | 2.85 / 3.66 / 3.30 | 3.27 | 1/9 (5.51) |
| 12 | G24E Y31N N33W | 4.28 / 5.75 / nd | 5.02 | 1/9 (4.03) |
| 13 | R28C N51T F98V | 3.08 / nd / nd | 3.08 | 3/9 (4.43) |
| 14 | L27W G49K S92N | 3.66 / 3.22 / nd | 3.44 | 1/9 (2.06) |
| 15 | S26N S55G S92D | 2.28 / 2.09 / 1.99 | 2.12 | 1/9 (3.75) |
| 16 | E23S Y29Q S55M | 1.87 / 1.76 / 1.52 | 1.72 | 2/9 (4.47) |
| 17 | Y30K S89L G94S | 2.95 / nd / 3.44 | 3.19 | 3/9 (4.20) |
| 18 | A32M P54F S92I | 5.09 / nd / nd | 5.09 | 4/9 (4.23) |
| 19 | Y29M Y30T V97R | 1.63 / 1.72 / 0.95 | 1.43 | 4/9 (4.10) |
| 20 | Y31V A32K S89G | 2.29 / 2.41 / 2.51 | 2.40 | 2/9 (3.96) |
| 21 | A32L N33S F95S | 4.72 / 4.06 / 4.19 | 4.32 | 6/9 (4.05) |
| 22 | Y29F R53F F98H | nd / nd / nd | nd | 2/9 (3.28) |
| 23 | L27V S92R S93R | nd / nd / nd | nd | 2/9 (3.93) |
| 24 | Y29P N51I F98K | 3.70 / 3.84 / 3.81 | 3.78 | 1/9 (2.82) |
| 25 | D25V S26H R53G | 4.29 / nd / 3.11 | 3.70 | 4/9 (3.93) |
| 26 | Y31K A32C R53W | nd / nd / nd | nd | 0/9 |
| 27 | G24E G49N K50V | nd / nd / nd | nd | 5/9 (3.74) |
| 28 | R28V R53T F95K | 3.34 / 4.40 / 4.59 | 4.11 | 1/9 (3.32) |
| 29 | S26A R28D V97L | 2.37 / 2.72 / 3.11 | 2.73 | 5/9 (3.43) |
| 30 | N51S Q96G F98R | 4.16 / 3.44 / 2.58 | 3.39 | 3/9 (4.42) |
| 31 | Y31V S89Q Q96L | nd / nd / nd | nd | 3/9 (3.62) |
| 32 | S26A R28H N33M | 4.48 / 2.59 / 3.71 | 3.59 | 2/9 (4.12) |
| 33 | L27G N51M R90G | 5.20 / 4.12 / nd | 4.66 | 0/9 |
| 34 | L27T S88F D91G | 2.66 / 3.85 / nd | 3.25 | 2/9 (3.06) |
| 35 | S26M Y29V S89P | 2.25 / 2.84 / 2.30 | 2.46 | 3/9 (4.10) |
| 36 | S26N N51V G94E | 4.07 / 5.58 / nd | 4.83 | 1/9 (3.64) |

From the list, the first 5 with no signal in any replicate:

changes	log10 Kd (nM) by replicate	mean log10 Kd (nM)	control signals
G49H K50R S89Q	nd / nd / nd	nd	2/9 (4.36)
Y29F R53F F98H	nd / nd / nd	nd	2/9 (3.28)
L27V S92R S93R	nd / nd / nd	nd	2/9 (3.93)
Y31K A32C R53W	nd / nd / nd	nd	0/9
G24E G49N K50V	nd / nd / nd	nd	5/9 (3.74)

Data: MIT Lincoln Laboratory AlphaSeq set, Engelhart et al. 2022, doi:10.1038/s41597-022-01779-4, as distributed in FLAb.